# Yeast mating assay B: variants of the scFv Ab-14

Antigen: PDVDLGDISGINAS, a 14-residue peptide of the SARS-CoV-2 spike HR2 region.

Each scFv is VH, a 15-residue (Gly4Ser)3 linker, VL, as in the parent Ab-14, and differs from it in the CDRs of the heavy chain only.
VH: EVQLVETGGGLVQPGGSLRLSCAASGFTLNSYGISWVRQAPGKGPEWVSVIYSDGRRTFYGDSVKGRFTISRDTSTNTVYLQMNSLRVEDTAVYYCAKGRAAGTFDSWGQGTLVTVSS
VL: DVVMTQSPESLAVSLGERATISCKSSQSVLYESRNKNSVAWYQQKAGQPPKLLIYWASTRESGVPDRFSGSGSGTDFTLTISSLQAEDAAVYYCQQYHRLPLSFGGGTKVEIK

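The parent was found by panning a naive human phage display library on the peptide. These sequences belong to a second round, designed from the earlier measurements on random variants of the parent. Their group label is 14H_En_Gibbs (En: ensemble of fine-tuned language models; Gibbs: Gibbs sampling). The assay is AlphaSeq: two haploid yeast populations carry antibody and antigen on their surface. Binding brings cells together so that they mate, and sequencing counts the barcode pairs among the diploids. The ratio of observed to expected reads was calibrated, replicate by replicate, on BCL2-family standards whose Kd was known from biolayer interferometry. Mating was done six times.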

The parent's heavy chain CDRs are GFTLNSYGIS, VIYSDGRRTFYGDSVK, GRAAGTFDS; each variant's own CDRs replace them letter for letter. Affinities are written as log10 Kd with Kd in nM; a lower number is a better binder. A pair that was not seen in that replicate is written "ND"; this usually means weak binding, but a binder can also be missed.

CDR-H1	CDR-H2	CDR-H3	log10 Kd (nM) by replicate	empty controls
GFSLDEYGIS	VIYADGQRKHYADSVK	GLIDGYYFA	ND ND ND ND ND ND	1 of 18 (2.66)
GFNIEEYGIS	VIYADGRRTAYAEPVK	GESGGTIDT	0.36 0.80 0.79 0.43 1.52 1.25	1 of 18 (3.55)
GFELQEYGIS	VIYADGMRTAYSDNVK	GDARGIFHM	ND ND ND ND ND ND	0 of 18
GFSLDEYGIS	VIYADGVRQAYQDSVK	GQWHGTFNY	-0.04 0.13 0.38 0.54 0.42 0.25	0 of 18
GKSVDEYGIS	VIYADGMRAEYQDSVK	GTTGGDVFV	ND ND ND ND ND ND	0 of 18
GDVLDEFGIS	VIYADGRRTAYTQDVK	GEKAGDFSF	ND ND ND ND ND ND	0 of 18
GDGIDEYGIS	VIYADGHRKQYSENVK	GYNAGTLDE	ND ND ND ND ND ND	0 of 18
GFDINEYGIS	VIYADGMRKAYVQNVK	GENSRSVQI	ND ND ND ND ND ND	0 of 18
GFDLEEYGIS	VIYADGHRSKYANSVK	GGQADFALL	ND 2.83 ND ND 2.63 ND	2 of 18 (2.36)
GGDLNEYGIS	VIYADGNRKNYADNVK	GQNGDVLNI	1.27 1.98 1.76 1.17 1.57 2.16	1 of 18 (4.36)
GFDIEDYGIS	VIYADGVRAMYKESFK	GGIAGTFLI	ND ND 2.78 ND ND ND	0 of 18
GMDLNEYGIS	VIYADGLRTAYINQVK	GKQSVIVGH	ND ND ND ND ND ND	1 of 18 (1.87)
GFNLDEYGIS	VIYADGMRTQYKDQVK	GNLKAHNMT	ND ND ND ND ND ND	0 of 18
GKGLDEYGVS	VIYADGKRKSYVDDVK	GGIAGNFLV	ND ND ND ND ND ND	0 of 18
GQNLDEYGIS	VIYADGMRKWYADDVK	GNMSAGLIA	ND ND ND ND ND ND	0 of 18
GFDLNEYGIS	VIYADGMRRAYAENFK	GVTGGGLHI	ND ND ND ND ND ND	0 of 18
GFNFDEYGIS	VIYADGKRNFYSDSVK	GYIGGFMEV	ND ND ND ND ND 2.30	0 of 18
GFDIEEYGIS	VIYADGIRQAYKDKVK	GWNVGRFSV	ND ND 2.46 ND ND ND	0 of 18
GQSLDDYGIS	VIYADGQRKAAVDEVK	GENAGTFDI	ND ND ND ND ND ND	0 of 18
GFNLDEYGIS	VIYADGIRTVYADSVK	GGLKMHSLT	ND ND ND ND ND ND	0 of 18
GDDLEDYGIS	VIYADGRRRAYQENVK	GEYAGYFDV	ND ND ND ND ND ND	2 of 18 (2.61)
GNSLDEYGIS	VIYADGMRTAYTDDVK	GLVAGTLVD	1.66 0.81 2.49 0.50 1.54 0.99	1 of 18 (2.67)
GFDLESYGIS	VIYADGRRKAYHDSVK	GTNGSVSFV	ND ND ND ND ND ND	2 of 18 (1.87)
GKDLNEQGIS	VIYADGTRTAYANTVK	GEIAGTFPL	ND ND ND ND ND ND	0 of 18
GFNLDDMGIS	VIYADGERTAYSDSVK	GHEGYIMNV	ND ND ND ND ND ND	0 of 18
GFDLQEYGVS	VIYADGRRASYASKFK	GNHSGYLDK	ND ND ND ND ND ND	0 of 18
GFDLTEYGIS	VIYADGRRQEYVDDVK	GQTAGHFLD	ND ND ND ND ND ND	0 of 18
GFDLQEYGIS	VIYADGVREAYTNSFK	GQIAGTIDL	ND ND ND ND ND ND	0 of 18
GMSLGEYGIS	VIYADGERTNYASNFK	GVMAGTFDV	0.52 0.62 0.17 0.24 0.40 0.50	0 of 18
GFELSEYGIS	VIYADGVRVEYTQSVK	GQLGGSFNV	ND ND ND ND ND ND	0 of 18
GFSLGEYGIS	VIYADGERTNYVSNFK	GVLAGTFVL	ND ND ND ND ND ND	0 of 18
GFDLEEYGIS	VIYADGIRVSYAQNVK	GVYSGTHYV	1.78 ND ND 1.54 ND ND	0 of 18
GENINEYGIS	VIYADGRRTAYAQDVK	GQAGGIIDV	ND ND ND ND ND ND	0 of 18
GFALDEYGIS	VIYADGNRVFYADTVK	GLLGILYVV	ND ND ND ND ND ND	0 of 18
GFDLKEYGIS	VIYADGMRAGYADNVK	GEWGGKFLV	ND ND ND ND ND ND	1 of 18 (1.76)
GADLQEYGIS	VIYADGNRYAYTNSVK	GTQAGSLIV	ND ND ND ND ND ND	0 of 18
GFNINEYGIS	VIYADGQRLSYDDKVK	GDITGTFNL	ND ND ND ND ND ND	0 of 18

Picked from the list: the 5 lowest averages where every replicate gave a value.

CDR-H1	CDR-H2	CDR-H3	log10 Kd (nM) by replicate	empty controls
GFSLDEYGIS	VIYADGVRQAYQDSVK	GQWHGTFNY	-0.04 0.13 0.38 0.54 0.42 0.25	0 of 18
GMSLGEYGIS	VIYADGERTNYASNFK	GVMAGTFDV	0.52 0.62 0.17 0.24 0.40 0.50	0 of 18
GFNIEEYGIS	VIYADGRRTAYAEPVK	GESGGTIDT	0.36 0.80 0.79 0.43 1.52 1.25	1 of 18 (3.55)
GNSLDEYGIS	VIYADGMRTAYTDDVK	GLVAGTLVD	1.66 0.81 2.49 0.50 1.54 0.99	1 of 18 (2.67)
GGDLNEYGIS	VIYADGNRKNYADNVK	GQNGDVLNI	1.27 1.98 1.76 1.17 1.57 2.16	1 of 18 (4.36)

A sequence measured in both rounds can read differently, since the two assays cover different ranges. Of ten entries with the parent sequence, four were seen in most replicates (averages 0.34 to 2.37), three in one and three in none, so single entries are noisy. In the paper, a design with two or fewer of six values counts as a poor binder. Three control strains display no target. For all heavy chain designs, 1% of the pairings with them gave a signal, with a median of 2.08 and one signal in twenty below 0.84, so weak values seen in few replicates may be background. Also given: how often the same scFv was detected with the empty control strains, with their mean in brackets.

The measurements come from Li et al. 2023 (doi:10.1038/s41467-023-39022-2) through the FLAb antibody collection.